Measured values published in BindingDB's records for US9096606.

What was measured:
[1] = biological target: Kappa-type opioid receptor (Homo sapiens, UniProt P41145); experiment: Radioligand Dose-Displacement Binding Assay; conditions: pH 7.4
[2] = biological target: Mu-type opioid receptor (Homo sapiens, UniProt P35372); experiment: Radioligand Dose-Displacement Binding Assay; conditions: pH 7.4

| Structure (SMILES) | Ki [1] [nM] | Ki [2] [nM] |
| --- | --- | --- |
| CO[C@]12CC[C@@]3(C[C@@H]1COCc1ccccc1Cl)[C@H]1Cc4ccc(O)c5c4[C@@]3(CC[N+]1(C)CC1CC1)[C@H]2O5 (stereo not given in full) | 0.19 | – |
| CO[C@]12CC[C@@]3(C[C@@H]1COCc1ccoc1)[C@H]1Cc4ccc(O)c5c4[C@@]3(CC[N+]1(C)CC1CC1)[C@H]2O5 (stereo not given in full) | 0.29 | – |
| CO[C@]12CC[C@@]3(C[C@@H]1COCc1ccc(Cl)cc1)[C@H]1Cc4ccc(O)c5c4[C@@]3(CC[N+]1(C)CC1CC1)[C@H]2O5 (stereo not given in full) | 0.59 | – |
| COc1ccc2c3c1O[C@H]1[C@@]4(OC)CC[C@@]5(C[C@@H]4COCc4ccc(Cl)c(Cl)c4)[C@@H](C2)[N+](C)(CC2CC2)CC[C@]315 (stereo not given in full) | 5.02 | – |
| COc1ccc2c3c1O[C@H]1[C@@]4(OC)CC[C@@]5(C[C@@H]4COCc4cc6ccccc6o4)[C@@H](C2)[N+](C)(CC2CC2)CC[C@]315 (stereo not given in full) | – | 275 |
